{"sequences": {"note": "Amino acid sequences for entries named in this document (tags omitted). A change or cut given only in a name is not applied to a line headed by its entry.", "UniProt P28845": "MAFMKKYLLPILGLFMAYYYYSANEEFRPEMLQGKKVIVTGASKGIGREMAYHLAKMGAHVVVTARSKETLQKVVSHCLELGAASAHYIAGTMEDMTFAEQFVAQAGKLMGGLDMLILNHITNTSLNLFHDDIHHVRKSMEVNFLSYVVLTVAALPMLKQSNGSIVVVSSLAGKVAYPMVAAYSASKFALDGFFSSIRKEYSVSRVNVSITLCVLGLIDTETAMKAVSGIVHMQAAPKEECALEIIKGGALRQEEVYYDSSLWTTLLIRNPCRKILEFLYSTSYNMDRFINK"}, "source": "ChEMBL document CHEMBL4602621", "about": "“Optimization of cyclic sulfamide derivatives as 11β-hydroxysteroid dehydrogenase 1 inhibitors for the potential treatment of ischemic brain injury” (Bioorg Med Chem Lett, 2020)", "target": "11-beta-hydroxysteroid dehydrogenase 1 (Homo sapiens, UniProt P28845)", "test": "Inhibition of human 11beta-HSD1 expressed in CHOK1 cells using XL665-labeled cortisol as substrate measured after 24 hrs by HTRF assay", "format": "cell-based, CHO-K1"}
{"smiles": "CC1(C)[C@@H](OC(=O)CCC(=O)O)CC[C@]2(C)[C@H]3C(=O)C=C4[C@@H]5C[C@@](C)(C(=O)O)CC[C@]5(C)CC[C@@]4(C)[C@]3(C)CC[C@@H]12", "note": "[CARBENOXOLONE]", "values": [{"measurement": "IC50", "value": 1630, "unit": "nM"}]}
